These results are taken from US8093209B2, “Methods of suppressing microglial activation and systemic inflammatory responses” (Cognosci, Incorporated, priority 2002, dated 2012).

Assay [1] deals with thioglycollate-elicited peritoneal macrophages. Put plainly: Competition between apoE and apoE mimetic peptide: [Ca2+]i on sequential stimulation. In kind it is cell-based, mouse. The protocol:
Competition between apoE and apoE mimetic peptide for binding site on the receptor. Changes in macrophage [Ca^2+]i upon stimulation with apoE and apoE-mimetic peptide were studied to determine whether these ligands bind to the same receptor. Fura-2/AM loaded macrophages were incubated overnight, plated on glass cover slips, stimulated with one ligand, and changes in [Ca^2+]i quantified. Cells were then stimulated with second ligand and Ca^2+ measurements repeated.

Assay [2] has the same test system. Kind of assay: [Ca2+]i in Fura-2/AM treated single macrophages, digital imaging microscopy (Example 10). In kind it is cell-based, mouse. The protocol:
Macrophage Harvesting. All experiments involving animals were first approved by the Duke Institutional Animal Care and Use Committee. Pathogen-free female C57BL/6 mice and ApoE deficient mice previously backcrossed 10 times to the C57BL/6 strain were obtained from the Jackson Laboratory (Bar Harbor, Me.). Thioglycollate-elicited peritoneal macrophages were harvested by peritoneal lavage using 10 ml of ice-cold Hanks' balanced salt solution containing 10 mM HEPES and 3.5 mM NaHCO3 (HHBSS), pH 7.4. The macrophages were pelleted by centrifugation at 4° C. at ˜800×g for 10 min and resuspended in RPMI 1640 media supplemented with 25 mM HEPES, 12.5 U/ml penicillin, 6.5 mg/ml streptomycin, and 5% fetal bovine serum. Cell viability was determined by the trypan blue exclusion method and was consistently greater then 95%.
Measurement of [Ca^2+]i in apoE and peptide treated macrophage. Changes in [Ca^2+]i levels in Fura-2/AM treated single cells were quantified using digital imaging microscopy in accordance with known techniques. Macrophages were plated on glass coverslips sitting in 35 mm Petri dishes at a density of 1.5×10^5 cells/cm^2, and allowed to adhere for 2 h in a humidified 5% CO2 incubator at 37° C. The non-adherent cells were aspirated and the monolayers were washed twice with HHBSS. 4 μM Fura-2/AM was incubated with the cells for thirty min in the dark at room temperature and [Ca^2+]i was subsequently measured using a digital imaging microscope in accordance with known techniques. After obtaining baseline measurements for 5 min, ligand (apoE, apoE mimetic peptide, or scrambled peptide) was added, and multiple [Ca^2+]i measurements were taken. To determine if signaling resulted from ligation of the ligand to LRP, cells were preincubated with a 1000-fold molar excess of RAP or 10 mM NiCl2, both of which inhibit ligand binding to LRP, for 5 min prior to stimulation with apoE or peptide. In experiments in which the involvement of a G protein was assessed, monolayers were incubated with 1 μg/ml pertussis toxin for 12 h at 37° C. and Ca^2+ measurements were made as stated above.

The subject of assay [3] is lipoprotein receptor-related protein (LRP) receptor. Put plainly: Receptor binding of 125I-apoE mimetic peptide to macrophages, competition with apoE. Details: species or system mouse. Particulars: radiolabeled peptide versus intact apoE. How it is done: Receptor Binding Studies. Macrophages were plated in 48-well cell culture plates (Costar) at 2.5×10^5 cells per well and incubated for 3 h at 37° C. in a humidified 5% CO2 incubator. The plates were then cooled to 4° C. and unbound cells were removed by three consecutive rinses with ice-cold Hanks' balanced salt solution containing 20 mM Hepes and 5% BSA, pH 7.4 (binding buffer). To quantify direct binding of the ^125I-apoE mimetic peptide, varying amounts of radiolabeled peptide were added to each well in the presence or absence of 200-fold molar excess of unlabeled peptide. Specific binding to cells was determined by subtracting the amount of ^125I-apoE peptide bound in the presence of excess unlabeled peptide (nonspecific binding) from the amount of ^125I-apoE peptide bound in the absence of excess unlabeled peptide (total binding). For competition studies, 50 nM radiolabeled peptide was added to each well in the presence or absence of varying amounts (31.25 nM-4 μM) of unlabeled ApoE2 or P. Cells were then incubated at 4° C. for 12-16 h. Unbound ligand was removed from the wells and the cell monolayer was rinsed three times with ice-cold binding buffer. Cells were then solubilized with 1 M NaOH, 0.5% SDS at room temperature for >5 h before the contents of each well was added to polystyrene tubes and counted in a LKB-Wallac, CliniGamma 1272 γ-counter (Finland).

As to “Ac-TEELRVRLASHLRKLRKRLL-amide [apoE-mimetic peptide]”, the “[Ca2+]i response on repeated or sequential ligand exposure (desensitization)” value in assay [1] is “marked attenuation in [Ca^2+]i response to subsequent peptide exposure”. In addition, in assay [2], the “cells examined showing increase in [Ca2+]i” value was 60-70% and the “concentration needed for [Ca2+]i responses compared to intact apoE, molar basis” value is “higher concentrations of peptide were necessary”. Also, the “increase in [Ca2+]i levels compared to buffer” value in assay [2] (macrophage) is on record as 2-3 fold. Moreover, the “competition for receptor binding” value in assay [3] was “competed with the intact protein for receptor binding”.
